## Antibody variant affinities, Ab-14 light chain, assay B

Antigen: PDVDLGDISGINAS, a 14-residue peptide of the SARS-CoV-2 spike HR2 region.

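This is the validation round: designs drawn from the data on random variants, tested in the same kind of assay. Their group label is 14L_GP_Gen (GP: Gaussian process model; Gen: genetic algorithm; a sequence that several methods proposed may carry one label only). Affinity was read by AlphaSeq, a pooled yeast mating assay with surface-displayed partners. Binding brings cells together so that they mate, and sequencing counts the barcode pairs among the diploids. Read counts were normalised to the haploid input and turned into Kd by a linear fit to BCL2-family pairs of known affinity, for each replicate. There are six technical replicates.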

Parent: Ab-14, a human scFv built as VH, the linker GGGGSGGGGSGGGGS, VL. Only the CDRs of the light chain vary.
VH: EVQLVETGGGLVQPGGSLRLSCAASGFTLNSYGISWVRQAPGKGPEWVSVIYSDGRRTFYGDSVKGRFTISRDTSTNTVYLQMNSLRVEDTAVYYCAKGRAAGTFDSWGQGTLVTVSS
VL: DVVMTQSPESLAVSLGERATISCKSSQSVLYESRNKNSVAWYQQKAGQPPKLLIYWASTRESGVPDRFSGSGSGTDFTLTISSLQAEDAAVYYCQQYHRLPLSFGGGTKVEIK

Positions count from residue 1 of the parent VL; S25L puts L in place of S. Affinities are written as log10 Kd with Kd in nM; a lower number is a better binder.

{"changes": "S25L L30W W56N E61L", "log10 Kd (nM) by replicate": "0.25 -0.11 -0.23 -0.18 -0.14 -0.08", "empty controls": "2 of 18 (2.94)"}
{"changes": "S25V W56N E61L", "log10 Kd (nM) by replicate": "0.03 -0.01 -0.08 -0.13 -0.09 0.09", "empty controls": "1 of 18 (2.36)"}
{"changes": "S25L S26D W56E", "log10 Kd (nM) by replicate": "0.05 -0.04 -0.11 -0.38 -0.25 -0.02", "empty controls": "2 of 18 (2.80)"}
{"changes": "V29W W56N T59Q Q96D", "log10 Kd (nM) by replicate": "-0.07 -0.27 -0.30 -0.30 -0.25 0.10", "empty controls": "0 of 18"}
{"changes": "S25L V29F W56N T59Q E61L", "log10 Kd (nM) by replicate": "0.19 0.19 0.09 0.18 0.23 0.18", "empty controls": "2 of 18 (2.29)"}
{"changes": "S25L V29H L30E W56N E61L", "log10 Kd (nM) by replicate": "-0.09 -0.29 -0.31 -0.49 -0.28 -0.15", "empty controls": "0 of 18"}
{"changes": "S25L S33M W56N", "log10 Kd (nM) by replicate": "0.25 0.26 -0.06 -0.19 -0.28 0.43", "empty controls": "0 of 18"}
{"changes": "S25L S26M V29Q W56N T59Q E61L", "log10 Kd (nM) by replicate": "0.51 0.73 0.31 0.24 0.35 0.73", "empty controls": "1 of 18 (2.86)"}
{"changes": "S25V K36Q W56N", "log10 Kd (nM) by replicate": "-0.10 -0.09 -0.32 -0.53 -0.49 -0.16", "empty controls": "0 of 18"}
{"changes": "S25L V29M W56N E61L S62E", "log10 Kd (nM) by replicate": "-0.23 -0.27 -0.37 -0.47 -0.36 -0.17", "empty controls": "4 of 18 (2.48)"}
{"changes": "S25L S28K W56N", "log10 Kd (nM) by replicate": "0.17 -0.01 0.03 0.09 -0.02 0.04", "empty controls": "1 of 18 (4.24)"}
{"changes": "S25L V29E W56N S58N", "log10 Kd (nM) by replicate": "0.81 0.62 0.56 0.47 0.92 0.71", "empty controls": "0 of 18"}
{"changes": "S25L S26M V29M L30E W56N T59Q", "log10 Kd (nM) by replicate": "-0.03 -0.31 -0.38 -0.34 -0.37 -0.30", "empty controls": "1 of 18 (4.58)"}
{"changes": "V29W W56N T59Q", "log10 Kd (nM) by replicate": "-0.40 -0.39 -0.29 -0.16 -0.22 0.08", "empty controls": "0 of 18"}
{"changes": "S25L V29W N35M W56N T59Q E61L", "log10 Kd (nM) by replicate": "0.43 0.32 0.34 0.17 0.44 0.55", "empty controls": "0 of 18"}
{"changes": "S25L S26D W56S T59Q", "log10 Kd (nM) by replicate": "0.22 -0.10 -0.09 -0.08 -0.14 0.00", "empty controls": "3 of 18 (2.58)"}
{"changes": "S26Q V29E L30P W56N T59Q", "log10 Kd (nM) by replicate": "-0.12 -0.58 -0.56 -0.62 -0.56 -0.31", "empty controls": "1 of 18 (2.37)"}
{"changes": "S25F S26Q V29E W56E", "log10 Kd (nM) by replicate": "0.04 -0.04 -0.08 -0.32 -0.07 0.02", "empty controls": "0 of 18"}
{"changes": "S25L V29M W56D Q96A", "log10 Kd (nM) by replicate": "-0.03 -0.16 -0.02 -0.29 -0.04 0.03", "empty controls": "0 of 18"}
{"changes": "S25V Q27G V29H S38A W56E", "log10 Kd (nM) by replicate": "-0.49 -0.52 -0.45 -0.63 -0.59 -0.38", "empty controls": "0 of 18"}
{"changes": "S25L V29W W56N T59Q", "log10 Kd (nM) by replicate": "-0.18 -0.05 -0.15 -0.27 -0.25 -0.04", "empty controls": "1 of 18 (2.75)"}
{"changes": "S25I V29Y W56N A57G", "log10 Kd (nM) by replicate": "0.00 0.29 0.20 0.05 0.10 0.49", "empty controls": "2 of 18 (2.44)"}
{"changes": "S25L V29E W56E S62M", "log10 Kd (nM) by replicate": "0.47 0.41 0.13 0.18 0.22 0.44", "empty controls": "1 of 18 (2.23)"}
{"changes": "S25L S26M W56N S62M", "log10 Kd (nM) by replicate": "0.39 0.52 -0.39 0.04 -0.19 0.38", "empty controls": "0 of 18"}
{"changes": "S25L W56H E61F", "log10 Kd (nM) by replicate": "0.53 0.35 0.16 0.52 0.45 0.88", "empty controls": "0 of 18"}

The 4 strongest on average among those seen in every replicate, once more:

{"changes": "S25V Q27G V29H S38A W56E", "log10 Kd (nM) by replicate": "-0.49 -0.52 -0.45 -0.63 -0.59 -0.38", "empty controls": "0 of 18"}
{"changes": "S26Q V29E L30P W56N T59Q", "log10 Kd (nM) by replicate": "-0.12 -0.58 -0.56 -0.62 -0.56 -0.31", "empty controls": "1 of 18 (2.37)"}
{"changes": "S25L V29M W56N E61L S62E", "log10 Kd (nM) by replicate": "-0.23 -0.27 -0.37 -0.47 -0.36 -0.17", "empty controls": "4 of 18 (2.48)"}
{"changes": "S25L S26M V29M L30E W56N T59Q", "log10 Kd (nM) by replicate": "-0.03 -0.31 -0.38 -0.34 -0.37 -0.30", "empty controls": "1 of 18 (4.58)"}

In the paper, a design with two or fewer of six values counts as a poor binder. Three control strains display no target. For all light chain designs, 4% of the pairings with them gave a signal, with a median of 2.64 and one signal in twenty below 1.59, so weak values seen in few replicates may be background. For each scFv, signals with the empty controls are counted beside the result, with their mean in brackets. A sequence measured in both rounds can read differently, since the two assays cover different ranges.

Reference: Li et al. 2023, doi:10.1038/s41467-023-39022-2. File: FLAb, binding data.